Data from ChEMBL document CHEMBL6071213, “Bicyclic Inhibitors of Branched-Chain α-Keto Acid Dehydrogenase Kinase (BDK) with In Vivo Activity” (ACS Med Chem Lett, 2024).
Calls of active or inactive are those of the source.

Assays:
Format in all cases: functional, organism-based
Details in all cases: time lower 90.0 min, time upper […]
[1] = molecular target: Branched-chain alpha-ketoacid dehydrogenase kinase (Mus musculus) (UniProt O55028); test: In vivo induction of BCKDC activity in mouse kidney assessed as increase in BCKDC level at 10 mg/kg,ip administration measured at 90 to 180 mins in presence of [14C]-alpha-ketoisovaleric acid by liquid scintillation counter analysis
[2] = molecular target: Branched-chain alpha-ketoacid dehydrogenase kinase (Mus musculus) (UniProt O55028); test: In vivo induction of BCKDC activity in mouse liver assessed as increase in BCKDC level at 10 mg/kg,ip administration measured at 90 to 180 mins in presence of [14C]-alpha-ketoisovaleric acid by liquid scintillation counter analysis
[3] = molecular target: Branched-chain alpha-ketoacid dehydrogenase kinase (Mus musculus) (UniProt O55028); test: In vivo induction of BCKDC activity in mouse heart assessed as increase in BCKDC level at 10 mg/kg,ip administration measured at 90 to 180 mins in presence of [14C]-alpha-ketoisovaleric acid by liquid scintillation counter analysis

Measured: Activity

O=C(Nc1nc(-c2ccc(F)cc2F)cs1)[C@H]1[C@H](C(=O)O)[C@H]2C=C[C@@H]1C2
active: all assays above
